Laboratory results: US8846682B2, “Compound suitable for the treatment of synucleopathies” (Neuropore Therapies, Inc., priority 2009, dated 2014)

Test system: neuronal cells
Conditions: doses ranging from 0.1-10 μM; FIG. 7

CCCCNC(=O)C(Cc1c[nH]c2ccccc12)NC(=O)c1cnc(N2CCNCC2)s1 (stereo not shown) [NPT200-5]
toxic effects on neuronal survival: no toxic effects
